Source: US20240327331A1, “ESTERS OF 7-COOH CBD DERIVATIVES AND THEIR USE AS PREVENTION, PROPHYLAXIS OF PROGRESSION, AND/OR TREATMENT OF NEUROGENERATIVE DISEASES” (Receptor Pharma INC, priority 2021, published 2024)
Where two headings read alike, the source gives them in different places.

By UniProt entry, the sequences of proteins in these tests, tags left out. Where a name states a change or a piece, a line headed by the entry shows the natural chain unless it says otherwise.
UniProt P46089: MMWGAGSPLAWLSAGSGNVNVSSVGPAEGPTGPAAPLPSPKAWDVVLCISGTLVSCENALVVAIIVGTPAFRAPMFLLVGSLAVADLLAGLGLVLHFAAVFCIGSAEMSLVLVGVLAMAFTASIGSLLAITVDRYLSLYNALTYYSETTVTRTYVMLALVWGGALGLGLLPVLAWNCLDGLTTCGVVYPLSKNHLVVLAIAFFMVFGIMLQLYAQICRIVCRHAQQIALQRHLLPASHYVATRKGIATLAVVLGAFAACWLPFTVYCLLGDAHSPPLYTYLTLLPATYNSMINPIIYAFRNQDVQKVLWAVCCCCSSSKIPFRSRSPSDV

Molecular target: GPR3 receptor (Homo sapiens, UniProt P46089)
Experiment: PathHunter β-arrestin2 recruitment assay in CHO-K1 cells expressing GPR3-PK
Assay type: cell-based
Parameters: host or cells: CHO-K1 (PathHunter eXpress kit)
Excerpt: The PathHunter™ eXpress kits containing Chinese hamster ovary (CHO)-K1 cells co-expressing EA-O-arrestin2 human and GPR3-PK were purchased from DiscoverX (Fremont, CA). All cannabinoid ligands were purchased from BDG Synthesis (Wellington, New Zealand).
PathHunter™ eXpress kits were used to measure GPR3-mediated β-arrestin2 recruitment following manufacturer's instructions. In this system, Chinese hamster ovary (CHO)-K1 cell line are stably expressing the GPR3 receptors which were fused to a “ProLink (PK)” fragment of βi-galactosidase to form GPR3-PK. The remaining sequence of β-galactosidase enzyme acceptor (EA) was linked to β-arrestin2 to form EA-β-arrestin2. Recruitment of Si-arrestin2 by receptor activation causes complementation of the two enzyme fragments. Levels of the active enzyme are the direct result of β-arrestin2 recruitment caused by receptor activation and quantified using the PathHunter detection reagent containing β-galactosidase substrates. […] Luminescence signal was then detected using a TECAN GENios Pro microplate reader.
Ligand-induced changes in R-arrestin2 recruitment to GPR3 were expressed as percent basal relative luminescence units, which was calculated by dividing luminescence readings in the presence of ligands by basal luminescence readings, times 100. […] Data were analyzed using one-way analysis of variance (ANOVA) followed by NewmanKeuls post-test. […]

SR144528
IC50 (cells incubated with 10 μM 7-COOH-CBD, FIG. 2, read-out: IC50 of SR144528 in competition experiment): 200 µM | IC50 (read-out: IC50 as GPR3 inverse agonist, SR144528 alone): 16 µM
